Data as given in US9663525B2, “Pyrazolopyrimidinyl inhibitors of ubiquitin-activating enzyme” (Millennium Pharmaceuticals, Inc., priority 2012, dated 2017).

By UniProt entry, the sequences of proteins in these tests, tags left out. Where a name states a change or a piece, a line headed by the entry shows the natural chain unless it says otherwise.
UniProt P22314: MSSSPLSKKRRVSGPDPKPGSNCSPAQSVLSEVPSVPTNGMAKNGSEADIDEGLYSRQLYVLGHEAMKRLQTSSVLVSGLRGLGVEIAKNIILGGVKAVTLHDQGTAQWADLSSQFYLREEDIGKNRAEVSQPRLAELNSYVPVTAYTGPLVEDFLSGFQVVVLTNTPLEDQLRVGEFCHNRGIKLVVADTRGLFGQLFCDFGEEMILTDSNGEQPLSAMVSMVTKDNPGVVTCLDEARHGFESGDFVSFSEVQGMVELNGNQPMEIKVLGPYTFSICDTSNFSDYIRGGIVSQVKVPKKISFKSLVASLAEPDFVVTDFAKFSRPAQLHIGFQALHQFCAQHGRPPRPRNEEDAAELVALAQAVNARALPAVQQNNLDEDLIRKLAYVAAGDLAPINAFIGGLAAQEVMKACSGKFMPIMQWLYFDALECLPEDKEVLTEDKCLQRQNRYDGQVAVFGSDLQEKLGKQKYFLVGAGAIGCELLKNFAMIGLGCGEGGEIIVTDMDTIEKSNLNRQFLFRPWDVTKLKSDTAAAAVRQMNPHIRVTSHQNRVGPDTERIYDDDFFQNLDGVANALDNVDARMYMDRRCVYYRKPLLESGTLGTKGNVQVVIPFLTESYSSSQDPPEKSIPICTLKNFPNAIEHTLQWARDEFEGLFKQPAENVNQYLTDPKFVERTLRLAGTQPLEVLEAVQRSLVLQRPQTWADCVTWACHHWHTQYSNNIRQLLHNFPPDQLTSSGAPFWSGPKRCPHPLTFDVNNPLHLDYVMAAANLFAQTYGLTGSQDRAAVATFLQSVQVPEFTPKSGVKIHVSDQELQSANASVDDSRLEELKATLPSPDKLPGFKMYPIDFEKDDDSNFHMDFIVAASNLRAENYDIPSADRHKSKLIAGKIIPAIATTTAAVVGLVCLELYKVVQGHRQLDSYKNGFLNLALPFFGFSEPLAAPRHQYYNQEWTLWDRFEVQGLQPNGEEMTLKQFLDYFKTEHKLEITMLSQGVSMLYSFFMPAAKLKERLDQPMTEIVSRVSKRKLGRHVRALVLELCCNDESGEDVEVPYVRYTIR

The compounds below were run against recombinant human UAE (Homo sapiens (Human), UniProt P22314) (assay: Ubiquitin Activating Enzyme (UAE) HTRF assay, human UAE). Settings: not given.

IC50 [nM]	Structure (SMILES)
< 10	NS(=O)(=O)OC[C@H]1C[C@@H](Nc2ccnc3cc(-c4cc(C(F)(F)F)ccc4F)nn23)[C@H](O)[C@@H]1O (racemic) [Compound I-029, (rac)-((1R,2R,3S,4R)-4-((2-(2-Fluoro-5-(trifluoromethyl)phenyl)pyrazolo[1,5-a]pyrimidin-7-yl)amino)-2,3-dihydroxycyclopentyl)methyl rel-sulfamate]
< 10	NS(=O)(=O)OC[C@H]1C[C@@H](Nc2ccnc3cc(-c4ccnc5cc(Cl)ccc45)nn23)[C@H](O)[C@@H]1O (racemic) [Compound I-039, (rac)-((1R,2R,3S,4R)-4-(2-(7-chloroquinolin-4-yl)pyrazolo[1,5-a]pyrimidin-7-ylamino)-2,3-dihydroxycyclopentyl)methyl rel-sulfamate]
< 10	CC1(C)OCc2ccc(-c3cc4nccc(N[C@@H]5C[C@H](COS(N)(=O)=O)[C@@H](O)[C@H]5O)n4n3)cc21 (racemic) [Compound I-053, (rac)-((1R,2R,3S,4R)-4-(2-(3,3-dimethyl-1,3-dihydroisobenzofuran-5-yl)pyrazolo[1,5-a]pyrimidin-7-ylamino)-2,3-dihydroxycyclopentyl)methyl rel-sulfamate]
< 10	CCc1ccc2scc(-c3cc4nccc(N[C@@H]5C[C@H](COS(N)(=O)=O)[C@@H](O)[C@H]5O)n4n3)c2c1 (racemic) [Compound I-094, (rac)-((1R,2R,3S,4R)-4-(2-(5-ethylbenzo[b]thiophen-3-yl)pyrazolo[1,5-a]pyrimidin-7-ylamino)-2,3-dihydroxycyclopentyl)methyl rel-sulfamate]

Same assay, conditions: human UAE

IC50 [nM]	Structure (SMILES)
< 10	NS(=O)(=O)OC[C@H]1C[C@@H](Nc2ccnc3cc(-c4ccc5cc(F)ccc5c4)nn23)[C@H](O)[C@@H]1O [Compound I-113, (s.e.)-((1R,2R,3S,4R)-4-(2-(6-fluoronaphthalen-2-yl)pyrazolo[1,5-a]pyrimidin-7-ylamino)-2,3-dihydroxycyclopentyl)methyl sulfamate]
< 10	Cc1ccc(-c2cc3nccc(N[C@@H]4C[C@H](COS(N)(=O)=O)[C@@H](O)[C@H]4O)n3n2)c2ccccc12 [Compound I-115, (s.e.)-((1R,2R,3S,4R)-2,3-dihydroxy-4-(2-(4-methylnaphthalen-1-yl)pyrazolo[1,5-a]pyrimidin-7-ylamino)cyclopentyl)methyl sulfamate]
< 10	NS(=O)(=O)OC[C@H]1C[C@@H](Nc2ccnc3cc(-c4cc(F)c5ccccc5c4)nn23)[C@H](O)[C@@H]1O [Compound I-118, (s.e.)-((1R,2R,3S,4R)-4-(2-(4-fluoronaphthalen-2-yl)pyrazolo[1,5-a]pyrimidin-7-ylamino)-2,3-dihydroxycyclopentyl)methyl sulfamate]
